Our source for the activation values is PubChem BioAssay AID1777 (Sanford-Burnham Center for Chemical Genomics, 2009).

Amino acid sequences for entries named in this document (tags omitted). A change or cut given only in a name is not applied to a line headed by its entry.
UniProt P41145: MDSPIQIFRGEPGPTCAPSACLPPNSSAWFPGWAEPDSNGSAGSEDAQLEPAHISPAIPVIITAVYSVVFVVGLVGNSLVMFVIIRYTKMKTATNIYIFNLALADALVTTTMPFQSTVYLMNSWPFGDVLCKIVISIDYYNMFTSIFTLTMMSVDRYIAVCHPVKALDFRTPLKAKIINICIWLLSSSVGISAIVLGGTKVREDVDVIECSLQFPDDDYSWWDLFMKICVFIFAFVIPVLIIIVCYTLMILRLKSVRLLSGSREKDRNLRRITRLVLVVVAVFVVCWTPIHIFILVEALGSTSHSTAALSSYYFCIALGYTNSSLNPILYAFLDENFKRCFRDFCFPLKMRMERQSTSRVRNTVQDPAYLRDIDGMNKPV

Molecules are shown by their SMILES. The list shows a part of the results. Measured potencies and affinities stand elsewhere. Calls of active or inactive are those of the source. No stated cut-off is given here; in the data, active means activation above about 50% (passing the limit was not always enough); inactive means the rest.

The target in this test is Kappa-type opioid receptor (Homo sapiens) (UniProt P41145). The test can be described thus: kappa opioid receptor activators – cell-based, luminescence, uHTS, primary screen (AID 1777). The settings on record: KOR beta-arrestin recruitment, at 10 µM, stronger effect = higher value.
Take `Cc1nc2cc(C(F)(F)F)ccc2n1C1CCN(Cc2nnnn2Cc2ccc3c(c2)OCO3)CC1`: the activation is inactive: -3.3%.

As to `Cn1c(=O)[nH]c(=O)c2c1nc(CN1CCN(c3ccccc3F)CC1)n2CC(N)=O`, the activation was inactive: 3.3%.

On to `Cc1ccc(CNC(=O)CCNC(=O)N2CCn3c2nc2ccccc23)cc1`, for which the activation was inactive: 0.5%.

On to `c1ccc(CN2CCC3(CC2)Nc2ccccc2S3)cc1`, for which the activation was inactive: -3.5%.

Regarding `COc1ccc(CNc2nc3ccccc3n2CCN2CCCCC2)c(OC)c1`, the activation is inactive: 2.5%.

For the compound `COc1ccc(N2CCn3c2nc2c3c(=O)n(CCCc3ccccc3)c(=O)n2C)c(OC)c1`, the activation is inactive: -0.5%.

Take `COc1ccccc1CNc1nc2ccccc2n1CCN1CCCCC1`: the activation was inactive: 1.6%.

Turning to `CCSc1nnc(NC(=O)Cn2cnc3c2c(=O)n(C)c(=O)n3C)s1`, the activation was inactive: 0.7%.

On to `C=CCc1cccc(CNc2nc3ccccc3n2CCN2CCOCC2)c1O`, for which the activation was inactive: -1.4%.

Regarding `O=C(Nc1cc([As](=O)(O)O)ccc1O)c1ccccc1`, the activation is inactive: 4.4%.

In the case of `Cn1c(=O)n(CC(=O)Nc2ccccc2)c2ccccc21`, the activation is inactive: 1%.

For `O=C(c1ccco1)N1CCn2c1nc1ccccc12`, the activation was inactive: -3.8%.

Consider `COc1ccc(Cc2nc3ccccc3n2CC(=O)N/N=C/c2ccccc2)cc1OC`, for which the activation was inactive: -0.9%.

On to `COc1ccccc1NS(=O)(=O)c1cc(NC(=O)Cn2cnc3c2c(=O)n(C)c(=O)n3C)ccc1C`, for which the activation is inactive: -1.2%.

As to `Cn1c(=O)[nH]c(=O)c2c1nc(SCc1ccccc1Cl)n2CC(N)=O`, the activation is inactive: 3.3%.

With `COc1ccc(CNC(=O)Cn2cnc3c(=O)n(C)c(=O)n(C)c32)cc1`, the activation is inactive: 2.6%.

As to `Cc1ccc2c(c1)[C@@H]1CN(C)CC[C@@H]1N2S(=O)(=O)c1ccc(F)cc1`, the activation is inactive: 6.6%.

As to `CCOC(=O)c1c(NC(=O)Cn2c(C)nc3ccccc32)sc2c1CCC2`, the activation is inactive: 1.8%.

Regarding `COc1ccc(N2CCn3c2nc2c3c(=O)n(CCCc3ccccc3)c(=O)n2C)cc1`, the activation was inactive: 5.6%.

In the case of `CC(C)C[C@H](NC(=O)N1CCn2c1nc1ccccc12)C(=O)NC1CCCCC1`, the activation is inactive: 2%.

Take `O=C(Nc1ccc2c(c1)nc1n2CCN(Cc2ccccc2)C1)NC1CCCCC1`: the activation is inactive: -4%.

`CCN(/C(=N/P(=O)(N1CCOCC1)N1CCOCC1)N1CCOCC1)c1ccc(OC)cc1`: the activation was inactive: -3.5%.

On to `COc1ccc(/C([O-])=C(/C(=S)Nc2ccc(C)c(C)c2)n2c[n+](C)c3ccccc32)cc1OC`, for which the activation was inactive: 0.5%.

`Cc1ccc(-c2nnc(N3CCN(C(=O)Cn4c(=O)n(C)c5ccccc54)CC3)c3ccccc23)cc1`: the activation is inactive: -2%.

As for `Cc1nc2ccccc2n1CC(=O)NC(C)C1CC2CCC1C2` (stereo not drawn), the activation is inactive: -2.5%.

Consider `CCc1ccc(C(C)NC(=O)Cn2cnc3c(=O)n(C)c(=O)n(C)c32)cc1` (stereo not drawn), for which the activation was inactive: 0.7%.

In the case of `C[N+]1=C2C=CC=CC=C2SC12C([N+](=O)[O-])=CC([N+](=O)[O-])=C[C-]2[N+](=O)[O-]` (stereo not drawn), the activation was inactive: -2.4%.

Consider `Cc1ccc2c(c1)C1CN(C)CCC1N2C(=O)Cn1cnc2c1c(=O)n(C)c(=O)n2C` (stereo not drawn), for which the activation is inactive: 1.1%.

Turning to `Nc1ccc([As](=O)(O)c2ccc(N)cc2)cc1`, the activation was inactive: 2.4%.

Turning to `C[C@H](NC(=O)N1CCn2c1nc1ccccc12)C(=O)NC1CCCCC1`, the activation is inactive: 0.8%.

`c1ccc(CCn2nnnc2CN2CCC(n3nnc4ccccc43)CC2)cc1`: the activation is inactive: -3.9%.

Take `CCC(CC)NC(=O)Cn1c(C(C)NC(C)=O)nc2ccccc21` (stereo not drawn): the activation was inactive: 3.2%.

On to `FC(F)(F)c1ccc2c(c1)nnn2C1CCN(Cc2nnnn2Cc2ccccc2)CC1`, for which the activation is inactive: 7.9%.

For `COc1ccc2nc(NC(=O)Cn3cnc4c(=O)n(C)c(=O)n(C)c43)sc2c1`, the activation was inactive: 1.9%.

For `CCC(=O)Nc1ccc(NC(=S)NC(=O)/C=C/c2ccccc2)cc1`, the activation is inactive: 4.2%.

In the case of `CCSc1nc2ccccc2n1CC(=O)N1CCCCC1`, the activation was inactive: -0.8%.

For the compound `Cc1nc2ccccc2n1CC(=O)NC1CCCCCC1`, the activation was inactive: -0.4%.

As to `O=C1CC(C(=O)Nc2cccc(F)c2)n2c(nc3ccccc32)N1` (stereo not drawn), the activation is inactive: -1.5%.

With `CC1CCN(C(=O)Oc2c(Cl)cc(Cl)c3cccnc23)CC1`, the activation was inactive: -2.5%.

Regarding `CNC(=O)Cc1nc2ccccc2n1CC(=O)Nc1cc(C)cc(C)c1`, the activation was inactive: -0.8%.

Regarding `N=c1n(CCN2CCOCC2)c2ccccc2n1CC(=O)c1cccc([N+](=O)[O-])c1`, the activation was inactive: 4.2%.

Consider `CN(C)C(=O)OCCc1n(C)cc[n+]1C`, for which the activation is inactive: -2.9%.

In the case of `CC(C)=N/N=C(\N)N[N+](=O)[O-]`, the activation was inactive: 2.2%.

Take `Cn1c(=O)n(CC(=O)N2CCN(c3nnc(-c4ccccc4)c4ccccc34)CC2)c2ccccc21`: the activation was inactive: 5.6%.

In the case of `NNC(=O)Cn1c(SCc2ccccc2)nc2ccccc21`, the activation is inactive: -11.6%.

Consider `CCN(CC)CCn1c(NCc2cccc(OC)c2OC)nc2ccccc21`, for which the activation is inactive: 6.7%.

With `CN1CCC(N(C)c2ncnc3ccc(Br)cc23)CC1`, the activation is inactive: -2.5%.

In the case of `Cn1c(=O)c2c(ncn2CC(=O)N2CCN(c3ccc([N+](=O)[O-])cc3)CC2)n(C)c1=O`, the activation is inactive: 3%.

Consider `CCc1nc2ccccc2n1CC(=O)N(C(C)CC)C1CCS(=O)(=O)C1` (stereo not drawn), for which the activation is inactive: 2.4%.

Take `N=c1n(CCN2CCCCC2)c2ccccc2n1CC(O)c1ccco1` (stereo not drawn): the activation is inactive: 6.5%.

As to `O=C(Cn1c(NCCO)nc2ccccc21)N1CCN(Cc2ccccc2)CC1`, the activation is inactive: 2%.

On to `Nc1ccccc1CNc1nc(NCCO)nc2c1ncn2CCN1CCOCC1`, for which the activation is inactive: -1.1%.

Turning to `Cn1c(=O)c2c(ncn2CC(=O)Nc2ccccc2)n(C)c1=O`, the activation is inactive: -3.3%.

For `NC(=O)CC(NC(=O)c1ccccc1)c1ccc(NC2CCN(Cc3ccccc3)CC2)c([N+](=O)[O-])c1` (stereo not drawn), the activation was inactive: -6.2%.

Turning to `N#CCC(=O)N/N=C\c1cc(Br)ccc1OC/C=C/c1ccccc1`, the activation is inactive: -5.6%.

On to `Cc1ccc2c(c1)C1CN(C)CCC1N2S(=O)(=O)c1ccc(Oc2ccc([N+](=O)[O-])cc2)cc1` (stereo not drawn), for which the activation was inactive: 4.7%.

For `Cc1ccc(SCc2nc3ccccc3n2CC(=O)Nc2ccccc2)cc1`, the activation is inactive: 1%.

`Cc1cc(NC(=O)CSc2nc3ccccc3n2CC(=O)N2CC(C)CC(C)C2)no1` (stereo not drawn): the activation is inactive: -6.6%.
